# Apparent affinities of Ab-14 variants for a coronavirus HR2 peptide

Source: Li et al. 2023 (doi:10.1038/s41467-023-39022-2), MIT Lincoln Laboratory and A-Alpha Bio; data file from the FLAb repository.

Binding partner: SARS-CoV-2 spike HR2 peptide, sequence PDVDLGDISGINAS.

Parent scFv Ab-14: VH joined to VL by the linker GGGGSGGGGSGGGGS. Changes lie in the light chain CDRs alone.
VH: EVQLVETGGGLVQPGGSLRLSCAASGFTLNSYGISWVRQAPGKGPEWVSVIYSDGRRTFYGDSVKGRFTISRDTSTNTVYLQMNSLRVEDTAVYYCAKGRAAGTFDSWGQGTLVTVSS
VL: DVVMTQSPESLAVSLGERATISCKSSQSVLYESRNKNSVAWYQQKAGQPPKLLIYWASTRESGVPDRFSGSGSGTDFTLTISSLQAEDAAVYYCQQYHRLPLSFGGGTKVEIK

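The parent was found by panning a naive human phage display library on the peptide. The variants were designed computationally from a first round of random CDR variants and then made and measured. Their group label is 14L_En_Gibbs (En: ensemble of fine-tuned language models; Gibbs: Gibbs sampling). AlphaSeq pools MATa yeast showing the antibodies with MATalpha yeast showing the peptide. Pairs that bind mate more often; barcode pairs of the diploids are counted by sequencing. A regression on co-assayed BCL2-family reference pairs converts the normalised counts of each replicate to an apparent Kd. Mating was done six times.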

Sequences are complete VL domains. The read-out is the apparent dissociation constant on a log10 scale (nM): the lower, the stronger. Averages over replicates are reported, and they cover detected replicates only. "nd" means that the variant was in the library but no mating with the target was seen in that replicate; the authors take this as a sign of poor binding, and no number exists.

| VL | log10 Kd (nM) by replicate | log10 Kd (nM), mean | control signals |
|---|---|---|---|
| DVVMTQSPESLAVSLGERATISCKLDMFIPSQWEWDASIAWYQQKAGQPPKLLIYGTTLRCTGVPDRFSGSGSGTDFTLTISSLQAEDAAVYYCQDYARLPLSFGGGTKVEIK | 1.23 2.29 1.22 1.54 1.55 2.19 | 1.67 | 0 of 18 |
| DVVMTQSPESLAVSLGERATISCMLTRFNLENQGRSNNIAWYQQKAGQPPKLLIYDTNNVQEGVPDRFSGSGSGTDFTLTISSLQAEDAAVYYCQQYFRLPFAFGGGTKVEIK | 1.79 2.05 1.58 1.53 1.33 1.40 | 1.61 | 0 of 18 |
| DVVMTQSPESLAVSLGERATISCHSTGSLRMDSRNKNHVAWYQQKAGQPPKLLIYDTTVRESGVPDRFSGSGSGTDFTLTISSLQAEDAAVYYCQQYMRLPLVFGGGTKVEIK | -0.09 -0.23 -0.45 -0.37 -0.38 -0.09 | -0.27 | 0 of 18 |
| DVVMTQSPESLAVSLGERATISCNISYLQGESTNSVNNVAWYQQKAGQPPKLLIYQTSKRAPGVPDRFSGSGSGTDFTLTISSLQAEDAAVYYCQYYQRLPLCFGGGTKVEIK | 0.53 0.79 0.49 0.36 0.81 1.30 | 0.71 | 0 of 18 |
| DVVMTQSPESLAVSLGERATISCQLAIDRLQEYKMGDAIAWYQQKAGQPPKLLIYGKTTREDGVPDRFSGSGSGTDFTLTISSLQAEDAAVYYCQQYARLPLSFGGGTKVEIK | 0.35 0.33 0.36 0.08 0.26 0.32 | 0.28 | 3 of 18 (2.63) |
| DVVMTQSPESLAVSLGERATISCMVSMMPNEPTRYSNAIAWYQQKAGQPPKLLIYDHSQRNTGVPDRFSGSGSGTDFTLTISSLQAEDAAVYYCQQYDRLPLSFGGGTKVEIK | 0.11 2.02 1.23 0.69 1.36 1.07 | 1.08 | 0 of 18 |
| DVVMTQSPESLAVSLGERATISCQLQLVQNGDTISEYSVAWYQQKAGQPPKLLIYHAEVSGRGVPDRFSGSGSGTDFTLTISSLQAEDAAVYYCQQYSQLPLIFGGGTKVEIK | nd nd nd nd nd nd | nd | 0 of 18 |
| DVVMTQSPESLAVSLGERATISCRLRNDWQGWIGNGASIAWYQQKAGQPPKLLIYDANMYAKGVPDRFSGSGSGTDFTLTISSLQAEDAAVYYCQQYQRLPLAFGGGTKVEIK | 0.55 0.53 0.23 0.25 0.20 0.49 | 0.37 | 3 of 18 (2.94) |
| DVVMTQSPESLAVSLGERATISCHVSQNLTDEMYREYNVAWYQQKAGQPPKLLIYETNHVEEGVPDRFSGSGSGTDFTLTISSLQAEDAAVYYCQDYFHLPLIFGGGTKVEIK | nd nd nd nd nd nd | nd | 0 of 18 |
| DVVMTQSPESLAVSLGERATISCTVKMELEEFAQDKHSVAWYQQKAGQPPKLLIYEAVERESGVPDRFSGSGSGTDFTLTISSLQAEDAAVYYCQQYHRLPIIFGGGTKVEIK | 1.36 1.35 0.83 0.80 1.26 1.30 | 1.15 | 0 of 18 |
| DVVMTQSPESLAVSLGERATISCKWQKDSLGQEQYQNNIAWYQQKAGQPPKLLIYNQDLRTAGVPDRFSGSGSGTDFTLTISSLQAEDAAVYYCQQYYMLPLTFGGGTKVEIK | 0.55 0.28 0.71 0.70 0.88 0.81 | 0.65 | 2 of 18 (2.03) |
| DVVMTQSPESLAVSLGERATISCKLNKHAWDFNETWNSVAWYQQKAGQPPKLLIYDHSMRVTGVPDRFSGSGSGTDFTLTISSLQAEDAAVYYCQDYIRLPLTFGGGTKVEIK | 2.02 nd 2.43 nd nd nd | 2.23 | 1 of 18 (2.10) |
| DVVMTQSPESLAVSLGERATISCNVGNEDPGQNYMHDSIAWYQQKAGQPPKLLIYGRSLRVEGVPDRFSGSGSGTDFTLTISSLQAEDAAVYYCQQYWRLPLLFGGGTKVEIK | 0.80 0.89 0.52 0.36 0.57 0.79 | 0.65 | 1 of 18 (2.55) |
| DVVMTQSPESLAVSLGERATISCNLSIQNQPQNMSANAVAWYQQKAGQPPKLLIYQTEIRCEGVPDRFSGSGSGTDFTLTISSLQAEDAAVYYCQQYAQLPLAFGGGTKVEIK | 2.05 1.76 1.79 1.45 1.89 1.52 | 1.74 | 1 of 18 (3.02) |
| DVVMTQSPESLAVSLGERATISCHVSQVKYDQYNAQQNIAWYQQKAGQPPKLLIYSAAEREWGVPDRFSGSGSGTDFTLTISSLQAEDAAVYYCQQYSRLPFFFGGGTKVEIK | 1.10 0.82 1.28 0.84 0.87 0.84 | 0.96 | 0 of 18 |
| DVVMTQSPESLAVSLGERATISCGIHSQMVGTSAVFENVAWYQQKAGQPPKLLIYNANERLEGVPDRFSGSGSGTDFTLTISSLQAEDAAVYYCQQYSRLPLTFGGGTKVEIK | 0.27 0.09 0.16 0.63 -0.09 0.43 | 0.25 | 0 of 18 |
| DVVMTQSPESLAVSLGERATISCMLTWGDDHETGRQNSIAWYQQKAGQPPKLLIYHAHERNTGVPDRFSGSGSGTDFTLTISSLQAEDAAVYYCQQYHQLPLTFGGGTKVEIK | 1.04 0.01 0.57 0.38 0.54 0.78 | 0.55 | 0 of 18 |
| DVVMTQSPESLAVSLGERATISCNLAMAYLQGILIKNNIAWYQQKAGQPPKLLIYSSNLRENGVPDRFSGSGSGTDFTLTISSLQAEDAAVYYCQQYEHLPLIFGGGTKVEIK | 1.05 1.05 0.98 0.67 0.73 1.09 | 0.93 | 2 of 18 (3.52) |
| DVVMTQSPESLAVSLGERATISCRLGGLDVNSTYEMDAVAWYQQKAGQPPKLLIYDVNTVGEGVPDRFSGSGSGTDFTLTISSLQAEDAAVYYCQHYSRLPLTFGGGTKVEIK | nd nd nd nd nd nd | nd | 0 of 18 |
| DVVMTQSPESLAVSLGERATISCRLNVFQNAITQQNNNIAWYQQKAGQPPKLLIYQANQKVHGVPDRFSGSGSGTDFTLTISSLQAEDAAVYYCQQYMRLPLYFGGGTKVEIK | -0.21 -0.32 -0.46 -0.30 -0.16 -0.14 | -0.27 | 0 of 18 |

The opening 3 entries, copied out:

| VL | log10 Kd (nM) by replicate | log10 Kd (nM), mean | control signals |
|---|---|---|---|
| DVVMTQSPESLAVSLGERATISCKLDMFIPSQWEWDASIAWYQQKAGQPPKLLIYGTTLRCTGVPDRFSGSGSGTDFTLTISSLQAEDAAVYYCQDYARLPLSFGGGTKVEIK | 1.23 2.29 1.22 1.54 1.55 2.19 | 1.67 | 0 of 18 |
| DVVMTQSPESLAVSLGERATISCMLTRFNLENQGRSNNIAWYQQKAGQPPKLLIYDTNNVQEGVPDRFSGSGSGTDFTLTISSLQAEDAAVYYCQQYFRLPFAFGGGTKVEIK | 1.79 2.05 1.58 1.53 1.33 1.40 | 1.61 | 0 of 18 |
| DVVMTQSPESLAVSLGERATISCHSTGSLRMDSRNKNHVAWYQQKAGQPPKLLIYDTTVRESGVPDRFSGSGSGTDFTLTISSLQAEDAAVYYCQQYMRLPLVFGGGTKVEIK | -0.09 -0.23 -0.45 -0.37 -0.38 -0.09 | -0.27 | 0 of 18 |

A sequence measured in both rounds can read differently, since the two assays cover different ranges. The authors' rule: three or more of the six replicates give a measured affinity, fewer mean a poor binder. The parent sequence was in this pool as ten entries: three were never detected, three once, and four in most replicates, with averages from 0.34 to 2.37. Background: pairings of all light chain designs with three empty control strains gave a value in 4% of cases (median 2.64, 5th percentile 1.59). Values in that range, when seen in few replicates, are hard to tell from nonspecific mating. Also given: how often the same scFv was detected with the empty control strains, with their mean in brackets.